Test [1] addresses Muscarinic acetylcholine receptor M1 (Homo sapiens) (UniProt P11229). The conditions noted are these: Affinity On-target Cellular Source Knowledge https://pubs.acs.org/doi/10.1021/jm200400m,https://pubs.acs.org/doi/10.1021/ml300280g, https://www.sgc-ffm.uni-frankfurt.de/#!specificprobeoverview/MSD-M1PAM.
The target in test [2] is Protein arginine N-methyltransferase 3 (Homo sapiens, UniProt O60678).

Protein sequences, listed by entry. Tags and fused reporters are not part of them. Lines headed by an entry give the natural chain unless they say otherwise; changes in a name come on top.
UniProt P11229: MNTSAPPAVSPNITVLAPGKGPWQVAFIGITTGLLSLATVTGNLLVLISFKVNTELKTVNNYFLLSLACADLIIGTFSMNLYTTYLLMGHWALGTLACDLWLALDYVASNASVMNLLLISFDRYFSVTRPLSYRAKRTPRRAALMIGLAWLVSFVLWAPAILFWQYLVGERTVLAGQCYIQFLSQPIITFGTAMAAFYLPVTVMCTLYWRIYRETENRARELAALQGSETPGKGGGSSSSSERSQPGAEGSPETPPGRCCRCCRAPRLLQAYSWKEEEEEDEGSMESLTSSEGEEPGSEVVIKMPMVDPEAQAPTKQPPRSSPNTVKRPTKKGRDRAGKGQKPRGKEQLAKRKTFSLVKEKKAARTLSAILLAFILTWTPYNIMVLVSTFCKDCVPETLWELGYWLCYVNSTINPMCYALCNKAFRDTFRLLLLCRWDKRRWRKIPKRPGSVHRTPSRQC
UniProt O60678: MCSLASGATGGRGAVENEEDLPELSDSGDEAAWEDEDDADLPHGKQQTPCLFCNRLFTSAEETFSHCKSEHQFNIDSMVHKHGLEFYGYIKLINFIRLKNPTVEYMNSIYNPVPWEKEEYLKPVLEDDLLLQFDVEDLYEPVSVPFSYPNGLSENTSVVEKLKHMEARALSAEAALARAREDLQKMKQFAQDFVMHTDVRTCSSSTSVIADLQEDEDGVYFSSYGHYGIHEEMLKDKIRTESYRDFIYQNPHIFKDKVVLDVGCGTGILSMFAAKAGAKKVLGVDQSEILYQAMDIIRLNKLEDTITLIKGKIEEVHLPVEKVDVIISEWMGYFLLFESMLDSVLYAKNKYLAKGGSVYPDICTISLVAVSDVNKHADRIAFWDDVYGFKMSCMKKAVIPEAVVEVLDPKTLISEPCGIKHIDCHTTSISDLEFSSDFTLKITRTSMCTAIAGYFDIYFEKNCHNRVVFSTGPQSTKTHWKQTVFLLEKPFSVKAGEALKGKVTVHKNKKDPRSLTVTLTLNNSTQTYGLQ

Consider two compounds from ChEMBL document CHEMBL5210121, “Affinity On-target Cellular Literature for EUbOPEN Chemogenomics Library wave 3” (2023).

As for `N#CC1(c2ccccn2)CCN(Cc2cc(C(=O)N3CCCC3)c(=O)n3ccccc23)CC1`, the Potentiation inflection point in test [1] is more than 10 µM.

For orientation: IC50 means the concentration at which inhibition is half-maximal. A high value points to a need for much substance. For the compound `CC(C)Oc1ccc(-c2c[nH]cc2CN(C)CCN)cc1`, in test [2], 1000 nM corresponded to half-maximal inhibition (IC50).
